## Antibody variant affinities, Ab-14 heavy chain, assay B

Reference: Li et al. 2023, doi:10.1038/s41467-023-39022-2. File: FLAb, binding data.

Antigen: PDVDLGDISGINAS, a 14-residue peptide of the SARS-CoV-2 spike HR2 region.

The variants keep the light chain, the linker and the frameworks of Ab-14 (scFv order VH, the linker GGGGSGGGGSGGGGS, VL).
VH: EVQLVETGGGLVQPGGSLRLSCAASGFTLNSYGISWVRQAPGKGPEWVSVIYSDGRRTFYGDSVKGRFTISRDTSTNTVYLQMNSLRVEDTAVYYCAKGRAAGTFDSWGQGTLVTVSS
VL: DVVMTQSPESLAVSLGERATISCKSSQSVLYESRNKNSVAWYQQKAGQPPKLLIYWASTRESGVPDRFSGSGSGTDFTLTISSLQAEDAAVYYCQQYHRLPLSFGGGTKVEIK

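The parent was found by panning a naive human phage display library on the peptide. Designed CDR sequences, proposed from the first random library and measured here. Several design methods are mixed in this list. The assay is AlphaSeq: two haploid yeast populations carry antibody and antigen on their surface. Mating (16 h, 30 °C) was followed by selection of diploids and sequencing of their barcodes. Each replicate has its own calibration line, from reference interactions of the BCL2 family. Each pool was mated in six replicate cultures.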

The parent's heavy chain CDRs are GFTLNSYGIS, VIYSDGRRTFYGDSVK, GRAAGTFDS; each variant's own CDRs replace them letter for letter. Variants here have more than six changes. Affinities are written as log10 Kd with Kd in nM; a lower number is a better binder. Averages over replicates are reported, and they cover detected replicates only. "no signal" marks a missing value. The strain was present, yet no cells mated with the target were sequenced in any replicate, which points to weak or no binding. Empty control strains, which show no peptide, gave a signal in 1% of pairings with all heavy chain designs; the median was 2.08 and 95% of these signals were weaker than 0.84. No background was subtracted. The control count says in how many pairings with the empty strains this scFv gave a signal. Values of this round are not directly comparable with the first-round values of the same sequences. Of ten entries with the parent sequence, four were seen in most replicates (averages 0.34 to 2.37), three in one and three in none, so single entries are noisy. In the paper, a design with two or fewer of six values counts as a poor binder.

With GFDLNEYGIS / VIYADGVRKAYADSVK / GNVAGTFDM the result was -1.49 (6 of 6 replicates; controls 0 of 18). Variant GFDLNEYGIS / VIYADGVRTAYADSVK / GNQAGTFDQ showed -0.96 (6 of 6 replicates; controls 1 of 18). With GFDLNEYGIS / VIYADGMRTYYADDVK / GNVAGTFDT the result was -0.51 (6 of 6 replicates; controls 2 of 18). With SFNLEEYGIS / VIYADGKRSVYADSVK / GHTSGWFAM the result was no signal (0 of 6 replicates; controls 0 of 18). With GFNLMEYGIS / VIYADGTRTAYAGTVK / GKYVDTFVD the result was no signal (0 of 6 replicates; controls 0 of 18). For GFNLDEYGIS / VIYADGMRRAYVDEVK / GSHSDVQNM, the assay gave no signal (0 of 6 replicates; controls 1 of 18). For GFDLNEYGIS / VIYADGRRTFYADSVK / GKNAGTFDM, the assay gave 1.57 (6 of 6 replicates; controls 0 of 18). Variant GFSLDEYGIS / VIYADGQRKFYTEDVK / GDYNNKKGT showed 1.70 (1 of 6 replicates; controls 0 of 18).

With GNVLDEYGIS / VIYADGMRTSYAQNFK / GIEGDNFMT the result was no signal (0 of 6 replicates; controls 0 of 18). Variant GFDLNEYGIS / VIYADGVRTFYIDSVK / GENAGTFDV showed -0.30 (6 of 6 replicates; controls 0 of 18). For GFDLNEYGIS / VIYADGKRSFYADSVK / GQLAGTFDS, the assay gave -0.82 (6 of 6 replicates; controls 0 of 18). For GFELDEYGIS / VIYADGKRKFYAQTVK / GETDGMILD, the assay gave no signal (0 of 6 replicates; controls 0 of 18). Variant GFDLQEYGIS / VIYADGQRTKVTDNVK / GNVTFTAGV showed no signal (0 of 6 replicates; controls 0 of 18). For GQDLNEYGIS / VIYADGLRTAYSNNFK / GVNAGFDQY, the assay gave no signal (0 of 6 replicates; controls 0 of 18). Variant GFDLNEYGIS / VIYADGSRTAYTDSVK / GEVAGTFDV showed 0.25 (6 of 6 replicates; controls 3 of 18). For GFDLNEYGIS / VIYADGMRTAYSDDVK / GNNAGTFDL, the assay gave -0.09 (6 of 6 replicates; controls 0 of 18).

Variant GFDLDEYGIS / VIYADGMRTFYTDSVK / GEAAGTFDI gave 0.29 (6 of 6 replicates; controls 1 of 18). Variant GFDLTEYGIS / VIYADGVRCHYADNVK / GKSDGTNML showed no signal (0 of 6 replicates; controls 0 of 18). With GFDLNEYGIS / VIYADGMRTAYTDSVK / GNVAGTFDM the result was -0.40 (6 of 6 replicates; controls 1 of 18). Variant GFDLNEYGIS / VIYADGSRTFYSDSVK / GQTAGTFDL showed -0.52 (6 of 6 replicates; controls 0 of 18). Variant GFTLDSYGIS / VIYSDGRPTFYGDSQK / HWAAGTALS showed no signal (0 of 6 replicates; controls 0 of 18). With GFDLNEYGIS / VIYADGRRTAYAESVK / GENAGTFDV the result was 0.76 (6 of 6 replicates; controls 0 of 18). Variant KFDLEAYGIS / VIYADGVRTNYVDKVK / GQTGGMFDM gave no signal (0 of 6 replicates; controls 0 of 18). For GESLDEFGIS / VIYADGMRTAYTDSVK / GLVAATFVD, the assay gave no signal (0 of 6 replicates; controls 1 of 18).

With GFDLDEYGIS / VIYADGSRTAYADSVK / GENAGTFDM the result was 0.21 (6 of 6 replicates; controls 0 of 18). With GVDIDEYGIS / VIYADGIRTFYIDRVK / GNLGGQFDM the result was no signal (0 of 6 replicates; controls 0 of 18). With GFDLNEYGIS / VIYADGKRTAYSDSVK / GSNAGTFDV the result was 0.38 (6 of 6 replicates; controls 0 of 18). Variant KFDIEEYGIS / VIYADGKRTSYSNAVK / GNQGRTFNT gave no signal (0 of 6 replicates; controls 0 of 18). Variant GFTLDEYGIS / VIYADGRRTFYADSVK / GNVAGTFDL gave -0.74 (6 of 6 replicates; controls 0 of 18). For GFDIEKYGIS / VIYADGQRVAYDSSVK / GEEAGNFHV, the assay gave no signal (0 of 6 replicates; controls 0 of 18). Variant GFDLNEYGIS / VIYADGIRTAYADNVK / GEVAGTFDV showed -0.46 (6 of 6 replicates; controls 0 of 18). With GFDLNEYGIS / VIYADGLRTQYAESFK / GDLAGYFMS the result was no signal (0 of 6 replicates; controls 0 of 18).

With GFDLNEYGIS / VIYADGRRTQYIDSVK / GETAGTFDV the result was -0.33 (6 of 6 replicates; controls 0 of 18). With GFDLNEYGIS / VIYADGQRTFYSDSVK / GNVAGTFDV the result was -0.88 (6 of 6 replicates; controls 0 of 18). For GFDINEYGIS / VIYADGRRTAYADSVK / GEAAGTFDA, the assay gave -0.28 (6 of 6 replicates; controls 0 of 18). For GFNLNEYGIS / VIYADGMRTAYTDSVK / GETAGTFDV, the assay gave -0.52 (6 of 6 replicates; controls 1 of 18). Variant GFDLNEYGIS / VIYADGKRTAYVDSVK / GNVAGTFDQ showed 0.53 (6 of 6 replicates; controls 0 of 18). With GFDLNEYGIS / VIYADGMRTYYADSVK / GEVAGTFDT the result was 0.07 (6 of 6 replicates; controls 0 of 18).